Test results published in patent US20180055857A1, “TREATMENT OF ACNE VULGARIS WITH SEQUENTIAL TOPICAL FORMULATIONS COMPRISING ANTIMICROBIAL ORGANIC ACID ANIONS IN ALKALINE PHASE” (KANTIAN SCIENCES CORPORATION, priority 2015, published 2018).
Read-outs that look alike come from different tables or passages of the source.

Chlorite
% ClO2^− (pH 2.3): 68.0%
% HClO2 (pH 2.3): 35.0%
% ClO2^− (pH 2.6): 81.9%
% HClO2 (pH 2.6): 18.1%
% ClO2^− (pH 2.8): 87.7%
% HClO2 (pH 2.8): 12.3%
% ClO2^− (pH 3.0): 91.5%
% HClO2 (pH 3.0): 8.5%
% ClO2^− (pH 3.5): 97.6%
% HClO2 (pH 3.5): 2.4%
